Reference: patent US11905539B2, “Isopropylmalate synthase variant and a method of producing L-leucine using the same” (dated 2024)

System: Corynebacterium glutamicum ATCC14067
Experiment: Mortality rate of strains treated with NTG, smeared on minimal medium
Settings: NTG 400 μg/mL final concentration, 30 minutes

SMILES: CN(N=O)C(=N)N[N+](=O)[O-]
- mortality rate: 99.6%
